Binding of CDR-mutated scFvs to a peptide of the spike HR2 region

The target is the same throughout: PDVDLGDISGINAS, from the HR2 region of SARS-CoV-2 spike.

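AAYL50 was designed without a model: most single CDR substitutions and a random sample of double and triple ones. In AlphaSeq, yeast of one mating type display the scFv and yeast of the other type display the target. Pairs that bind mate more often; barcode pairs of the diploids are counted by sequencing. Scores were corrected for input abundance and mapped to Kd with protein pairs of known affinity run in the same pool. The assay was run in three technical replicates.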

The variants keep the heavy chain, the linker and the frameworks of Ab-14 (scFv order VH, three GGGGS repeats, VL).
VH: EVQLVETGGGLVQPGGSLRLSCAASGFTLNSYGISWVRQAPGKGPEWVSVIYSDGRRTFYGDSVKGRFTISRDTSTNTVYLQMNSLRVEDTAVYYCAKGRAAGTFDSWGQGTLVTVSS
VL: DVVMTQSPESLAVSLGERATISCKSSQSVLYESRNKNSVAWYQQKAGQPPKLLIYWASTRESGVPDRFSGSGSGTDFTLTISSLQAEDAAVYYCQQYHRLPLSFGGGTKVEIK

Each variant is given by its three light chain CDRs, as the data file delimits them; those of the parent are KSSQSVLYESRNKNSVA, WASTRES, QQYHRLPLS.
Every variant below is changed at V29 of the VL (sequential numbering).
Numbers give log10(Kd / nM), so 0 is 1 nM and 3 is 1 µM. Smaller is tighter.
The mean shown is taken over the replicates in which the pair was detected.
"nd" means that the variant was in the library but no mating with the target was seen in any replicate; the authors take this as a sign of poor binding, and no number exists.
Order: sorted from the lowest average up, undetected variants last.

With KSSQSLLYESRNKSSVA / WASTRES / QQYHRRPLS the result was 0.65 (3 of 3 replicates; controls 0 of 9). With KSSQSALYESRNKNSVA / WASTREM / QQYGRLPLS the result was 0.68 (3 of 3 replicates; controls 4 of 9). The variant KSSQSALYESRNKNSVA / WASTRES / QQYHRGPLS gave 0.82 (3 of 3 replicates; controls 3 of 9). With KSSQSFLYESRNKNSVA / WTSTRFS / QQYHRLPLS the result was 0.86 (3 of 3 replicates; controls 1 of 9). For KSSQVRLEESRNKNSVA / WASTRES / QQYHRLPLS, the assay gave 0.98 (3 of 3 replicates; controls 1 of 9). The variant KSSISKLYESHNKNSVA / WASTRES / QQYHRLPLS gave 1.02 (3 of 3 replicates; controls 1 of 9). With QSSQSMLYESRNKNSVA / WASTRES / QQYHRLPLS the result was 1.10 (3 of 3 replicates; controls 0 of 9). For KSSQSCLDESRNKNMVA / WASTRES / QQYHRLPLS, the assay gave 1.13 (3 of 3 replicates; controls 3 of 9).

The variant KSSQSMLYESRNKNSVA / WASTRWS / QQYHRNPLS gave 1.46 (3 of 3 replicates; controls 0 of 9). For KSSQSHLYESRAKNSVA / WASTRES / QQYHRLPLS, the assay gave 1.49 (3 of 3 replicates; controls 5 of 9). The variant KSSQSDLYRSRNKNSVA / WASTREF / QQYHRLPLS gave 1.58 (3 of 3 replicates; controls 0 of 9). The variant KSSQSELFESRNKNSVA / WAMTRES / QQYHRLPLS gave 1.58 (3 of 3 replicates; controls 4 of 9). For KSIQSGLYESRMKNSVA / WASTRES / QQYHRLPLS, the assay gave 1.85 (3 of 3 replicates; controls 0 of 9). For KSSQSPLYESRNKNSVA / WASTREK / QQYHELPLS, the assay gave 1.90 (3 of 3 replicates; controls 3 of 9). The variant LSSQSLLYESRNKNSVA / WASTRES / QQYRRLPLS showed 1.93 (3 of 3 replicates; controls 1 of 9). For KSSQVQLYESRNKMSVA / WASTRES / QQYHRLPLS, the assay gave 1.97 (3 of 3 replicates; controls 3 of 9).

For KSSWSMLYESRNKNSVA / WESTRES / QQYHRLPLS, the assay gave 2.09 (3 of 3 replicates; controls 3 of 9). The variant KSSQSQLYESRNKCSVA / WASTRES / QQYHRLPLS gave 2.11 (3 of 3 replicates; controls 5 of 9). With KSSQSQLYESRNKSSVA / WASTRES / QQYHRLCLS the result was 2.17 (3 of 3 replicates; controls 0 of 9). The variant KSSQSDLYESRNKNSVA / WNSFRES / QQYHRLPLS gave 2.30 (3 of 3 replicates; controls 1 of 9). With KSSQSQLYESRNKNSVA / VASTRES / QQYHRLPLS the result was 3.12 (3 of 3 replicates; controls 3 of 9). The variant KSSQSRLYESRNKLQVA / WASTRES / QQYHRLPLS gave 3.45 (1 of 3 replicates; controls 1 of 9). With KSSQSENYESRNKNSVA / WASTRES / QQYHRLPHS the result was 4.10 (1 of 3 replicates; controls 5 of 9). The variant KSSQRHLYESRNKNSVA / WWSTRES / QQYHRLPLS showed 4.16 (1 of 3 replicates; controls 0 of 9).

With KSSQSGLYQSRNKNSVA / WASTFES / QQYHRLPLS the result was 4.67 (1 of 3 replicates; controls 1 of 9). The variant KSSQSFLYESRNCNSVA / WALTRES / QQYHRLPLS gave 5.03 (2 of 3 replicates; controls 1 of 9). With KSSDSHHYESRNKNSVA / WASTRES / QQYHRLPLS the result was 5.35 (2 of 3 replicates; controls 5 of 9). For KSSQSSLYESRNKNSVC / WASTRES / QQYQRLPLS, the assay gave nd (0 of 3 replicates; controls 0 of 9). The variant KSSQSGLYESRNKNSVA / WASTSES / QWYHRLPLS showed nd (0 of 3 replicates; controls 0 of 9). For KSSQSSLYESRNKNSVA / WASTRES / QQYHRFPHS, the assay gave nd (0 of 3 replicates; controls 0 of 9). For KSSQSSLYESRNKNSVA / WASTRES / WQYRRLPLS, the assay gave nd (0 of 3 replicates; controls 0 of 9). The variant KSSQAKLYESRNKNKVA / WASTRES / QQYHRLPLS showed nd (0 of 3 replicates; controls 0 of 9).

The variant KSSQSCLYESRNKNSVA / WASTRES / QQYHRFPLF gave nd (0 of 3 replicates; controls 0 of 9). For KSSQSHLDESRNKNSVA / VASTRES / QQYHRLPLS, the assay gave nd (0 of 3 replicates; controls 0 of 9). The variant KSSQSHLYESRNKNSFA / WASTRES / QQYHPLPLS gave nd (0 of 3 replicates; controls 0 of 9). The variant KSSQSELYESRNKNSVP / WASTRES / QQYHRLPLS showed nd (0 of 3 replicates; controls 0 of 9). For KSSQSCLYESRNKNLVA / WASTRES / QQYHRLPLS, the assay gave nd (0 of 3 replicates; controls 0 of 9).

Background: pairings of library AAYL50 with three empty control strains gave a value in 18% of cases (median 4.19, 5th percentile 2.99). Values in that range, when seen in few replicates, are hard to tell from nonspecific mating. The control count says in how many pairings with the empty strains this scFv gave a signal.
In this assay the parent's reference entry averaged 0.65; its copy inside this library read 1.68.

Source: Engelhart et al. 2022 (doi:10.1038/s41597-022-01779-4), MIT Lincoln Laboratory and A-Alpha Bio; data file from the FLAb repository.